According to ChEMBL document CHEMBL1687699, “Discovery of Dual VEGFR-2 and Tubulin Inhibitors with in Vivo Efficacy” (ACS Med Chem Lett, 2010):

Test: Ratio of IC50 for VEGFR-1 to IC50 for VEGFR-2

| Ratio IC50 | SMILES |
| --- | --- |
| 10 | c1cnc(NCc2ccncc2)c(-c2nnc(Nc3ccc4c(c3)OCCO4)o2)c1 |
| 10 | c1cnc(NCc2ccc3ncccc3c2)c(-c2nnc(Nc3ccc4c(c3)OCCO4)o2)c1 |

| SMILES | Ratio IC50 |
| --- | --- |
| c1ccc(-c2nnc(Nc3ccc4c(c3)OCCO4)o2)c(NCc2ccncc2)c1 | 10 |
